# AlphaSeq binding of Ab-14 light chain variants to a spike HR2 peptide

Source: Li et al. 2023 (doi:10.1038/s41467-023-39022-2), MIT Lincoln Laboratory and A-Alpha Bio; data file from the FLAb repository.

Antigen: PDVDLGDISGINAS, a 14-residue peptide of the SARS-CoV-2 spike HR2 region.

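The starting antibody came from a phage panning campaign against this peptide. These sequences belong to a second round, designed from the earlier measurements on random variants of the parent. Their group label is 14L_GP_HC (GP: Gaussian process model; HC: hill climbing; a sequence that several methods proposed may carry one label only). In AlphaSeq, yeast of one mating type display the scFv and yeast of the other type display the target. Pairs that bind mate more often; barcode pairs of the diploids are counted by sequencing. Scores were corrected for input abundance and mapped to Kd with protein pairs of known affinity run in the same pool. There are six technical replicates.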

The variants keep the heavy chain, the linker and the frameworks of Ab-14 (scFv order VH, a (GGGGS)3 linker, VL).
VH: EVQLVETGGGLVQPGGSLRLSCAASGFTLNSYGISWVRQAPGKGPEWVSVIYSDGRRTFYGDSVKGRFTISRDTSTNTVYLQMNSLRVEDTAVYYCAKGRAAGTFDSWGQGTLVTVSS
VL: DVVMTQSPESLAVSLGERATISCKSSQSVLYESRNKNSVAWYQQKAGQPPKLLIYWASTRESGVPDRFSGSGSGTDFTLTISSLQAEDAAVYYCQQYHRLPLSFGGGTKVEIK

The parent's light chain CDRs are KSSQSVLYESRNKNSVA, WASTRES, QQYHRLPLS; each variant's own CDRs replace them letter for letter. Affinities are written as log10 Kd with Kd in nM; a lower number is a better binder. Averages over replicates are reported, and they cover detected replicates only. Where no diploid with the target was found in that replicate, the entry reads "nd": below detection, most likely a poor binder, though not proof of it. Nonspecific signal, from three strains lacking the peptide, appeared in 4% of pairings of all light chain designs, centred on 2.64 (5% of these signals below 1.59); values are not corrected for it. Also given: how often the same scFv was detected with the empty control strains, with their mean in brackets. Values of this round are not directly comparable with the first-round values of the same sequences. Of ten entries with the parent sequence, four were seen in most replicates (averages 0.34 to 2.37), three in one and three in none, so single entries are noisy. The authors averaged sequences with at least three values out of six and counted those with two or fewer as poor binders.

| # | CDR-L1 | CDR-L2 | CDR-L3 | log10 Kd (nM) by replicate | mean log10 Kd (nM) | signal with controls |
|---|---|---|---|---|---|---|
| 1 | KLSQSFLYESRNKNSVA | GASTRES | QEYHRLTLS | 0.38 1.01 0.15 0.38 0.35 0.88 | 0.52 | 2 of 18 (2.80) |
| 2 | KSGQGVLYESRNKNSVA | GASQRLS | QQYHRLPLS | -0.01 0.20 0.03 -0.12 -0.03 0.16 | 0.04 | 0 of 18 |
| 3 | KSSGSYLYESPNKNSVA | EASTRES | QQYHRLPLS | 0.22 0.17 -0.01 0.05 0.32 0.16 | 0.15 | 0 of 18 |
| 4 | KFSDSVLLESRTKNNVA | NASTRES | QQYHRLPLS | 0.45 0.06 0.26 0.12 0.24 0.33 | 0.24 | 2 of 18 (3.26) |
| 5 | HLSESVLYESRNKNSVA | NASTRES | QQYHRLPLS | -0.22 -0.18 -0.31 -0.35 -0.44 -0.08 | -0.26 | 1 of 18 (2.17) |
| 6 | KLRQQTLYESRNKNSVA | EASTREE | QQYHRLPLS | -0.13 -0.34 -0.25 -0.31 -0.35 -0.15 | -0.26 | 1 of 18 (2.08) |
| 7 | KSSMSPLYESRNTNSVA | EASTRES | QQYHRLPLS | 0.44 0.53 0.46 0.33 0.71 0.86 | 0.56 | 1 of 18 (2.49) |
| 8 | KQSQSVLYESRNKNAVA | DASTRES | QMYHRLPLS | 0.21 -0.06 -0.34 -0.20 -0.10 0.14 | -0.06 | 1 of 18 (2.44) |
| 9 | KSLQSVLYESRNKNSVA | AASTRED | QQYHQLPLS | 0.79 0.41 0.50 0.45 0.32 0.58 | 0.51 | 0 of 18 |
| 10 | KLRQSTKYESRNQNSVA | HASTRSS | QQYHRLPLS | 0.71 0.63 0.56 0.87 1.00 0.99 | 0.79 | 1 of 18 (2.28) |
| 11 | HLSDSVLYESRNQNSVA | NASTREM | QQYHRLPLN | 0.09 -0.09 -0.01 -0.20 0.02 0.20 | 0.00 | 1 of 18 (2.31) |
| 12 | KSQQSWLYESRNKNSVA | GASFRES | QQYHRLPLS | 0.34 0.52 0.58 0.64 0.35 0.68 | 0.52 | 0 of 18 |
| 13 | KSSISYLGEARNKNSVA | EASTRES | QQYHRLPLS | 0.86 0.61 0.77 1.34 0.31 1.01 | 0.82 | 0 of 18 |
| 14 | KYLQSVLYESRNKNSVA | HASTRED | QQYHQLPLS | 0.46 0.18 0.17 0.37 0.33 0.32 | 0.31 | 0 of 18 |
| 15 | KSSISYEEESRNKNSVA | EASTRES | QQYHRLPLS | 0.28 0.34 0.04 0.07 0.01 0.48 | 0.20 | 1 of 18 (1.93) |
| 16 | KSGQGDLYESRNKNSVA | GASQRWS | QQYHRLPLS | -0.01 -0.29 -0.21 -0.32 -0.20 0.09 | -0.16 | 2 of 18 (3.12) |
| 17 | KLRQSTLYESRNKNSVA | NASTRES | QQYHRLHLS | 0.89 0.80 0.79 0.81 0.55 0.80 | 0.77 | 2 of 18 (2.42) |
| 18 | KSSKSVEFESRNKNSVA | NASTRES | QQYHRLPLS | 0.66 0.60 0.52 0.38 0.37 0.56 | 0.51 | 2 of 18 (2.55) |
| 19 | HQSQSVLYESRNKNSVA | DASTRES | QQYHRLPLS | 0.11 0.13 -0.23 -0.28 -0.05 0.23 | -0.01 | 1 of 18 (2.87) |
| 20 | KESQSVLQEWRNKNSVA | DASTRES | QQYHRLPLS | -0.02 -0.25 -0.30 -0.35 -0.24 -0.08 | -0.20 | 1 of 18 (3.04) |
| 21 | KSQQGVLYESRNKNHVA | GASTRES | QQYHRLPLS | nd 1.52 0.63 0.65 1.53 0.99 | 1.06 | 1 of 18 (1.50) |
| 22 | KSPQSVLYESRNKNSVA | GASTRED | QSYHRLPLS | 0.30 0.25 0.14 0.25 -0.10 0.42 | 0.21 | 0 of 18 |
| 23 | KSSQSWLYESRNFWNVA | GASTRES | QQYHRLPLS | 1.50 0.82 0.43 0.26 1.40 0.47 | 0.81 | 0 of 18 |
| 24 | KTSQEKLYESRNKNSVA | DASTRES | QQYHRLPLS | -0.07 -0.20 -0.24 -0.32 -0.42 -0.03 | -0.21 | 1 of 18 (3.58) |
| 25 | KSLQSHLYESRNFNSVA | HASTRED | QQYHRLPLS | 0.87 1.02 0.82 1.18 0.85 0.98 | 0.95 | 2 of 18 (2.86) |
| 26 | KSSWSVLFESRNKNSVA | EASTRSS | QQYHRLPLS | 0.78 0.38 0.44 0.31 0.61 0.80 | 0.56 | 0 of 18 |
| 27 | KFSQSVLYEGRTKNSVA | NASTRES | QQYHRLPLS | 0.54 0.32 0.34 0.05 -0.04 0.35 | 0.26 | 1 of 18 (2.52) |
| 28 | HLSFSVLYESRNKNSVA | NASTRES | QQYHRLPLF | -0.01 -0.03 -0.09 -0.21 -0.12 -0.11 | -0.09 | 0 of 18 |
| 29 | KLSQSFLYESRWKNSVA | GASQRES | QQYHRLTLS | nd nd nd nd 1.87 nd | 1.87 | 0 of 18 |
| 30 | KSSISYLYESLNKNSVA | AASTRES | QQYHRLPLS | 0.25 -0.04 -0.24 0.02 0.01 0.32 | 0.05 | 1 of 18 (1.78) |
| 31 | KASQSWLYESRNKNSVA | GASTREN | QQYHRLPLS | -0.37 -0.60 -0.76 -1.00 -0.81 -0.77 | -0.72 | 0 of 18 |
| 32 | KVSQSVLYESRNKNSVA | NASTRET | QQYHRLPLS | -0.20 -0.29 -0.46 -0.47 -0.41 -0.21 | -0.34 | 4 of 18 (2.82) |
| 33 | KSPQSVLYESRNFNSVA | HASTRED | QQYHRLPLS | 0.65 0.49 0.59 0.25 0.24 0.71 | 0.49 | 1 of 18 (3.97) |
| 34 | KMEQGDLYESRNKNSVA | GASVRES | QQYHRLPLS | -0.42 -0.58 -0.63 -0.92 -0.75 -0.55 | -0.64 | 0 of 18 |
| 35 | HSSPSEEYESRNKNSVA | NASSRES | QQYHRLPLS | 0.62 0.82 0.40 0.54 0.52 0.40 | 0.55 | 0 of 18 |
| 36 | KSSQSWLYESRNKNSVA | NASFRES | QQYHRLPLS | -0.49 -0.57 -0.49 -0.44 -0.61 -0.44 | -0.51 | 2 of 18 (3.35) |

A selection of 2 entries from above:

| CDR-L1 | CDR-L2 | CDR-L3 | log10 Kd (nM) by replicate | mean log10 Kd (nM) | signal with controls |
|---|---|---|---|---|---|
| KLRQQTLYESRNKNSVA | EASTREE | QQYHRLPLS | -0.13 -0.34 -0.25 -0.31 -0.35 -0.15 | -0.26 | 1 of 18 (2.08) |
| KMEQGDLYESRNKNSVA | GASVRES | QQYHRLPLS | -0.42 -0.58 -0.63 -0.92 -0.75 -0.55 | -0.64 | 0 of 18 |